Assay: Solubility in water
Conditions: 20° C., 100 g of water

| Substance | solubility in water | miscibility with water |
| --- | --- | --- |
| 1,4-cyclohexane dimethanol | 0.8 g/100 g of water |  |
| N,N-dimethylisopropanolamine |  | completely miscible with water |
| n-(n-octyl)-2-pyrrolidone | 0.1 g/100 g of water |  |
